Key:
[1] = test system: human primary cell line of ovarian carcinoma (pdOVCA1); assay: ATPlite cytotoxicity test, cell vitality; assay type: cell-based; conditions: pdOVCA1, 5 days incubation; 1,000, 500, 250 U/ml IFN equivalent; HA 323.5, 162.75, 81.375 μg/ml
Experimental: The determination of the biological activity of the HA-IFN conjugate was effected by means of a method prepared ad hoc.
The experiments were carried out on a human primary cell line of ovarian carcinoma (pdOVCA1), sensitive to the antiproliferative action of IFN. The cells were seeded at a concentration of 10,000 cells/well and incubated alone and in the presence of:
HA-IFN bioconjugate prepared as in Example 3 at a concentration of 1,000, 500, 250 U/ml as equivalent IFN Unit;
Recombinant human Interferon alpha 2a at a concentration of 1,000, 500, 250 U/ml;
HA having a molecular weight of 200 kDa, i.e. the same used for preparing the conjugate, at a concentration of 323.5, 162.75, 81.375 μg/ml.
After 5 days of incubation, the cell vitality was measured via the ATPlite cytotoxicity test. The results obtained are summarized in FIG. 4, where the cell vitality is expressed in percentage with respect to the level obtained for the cells incubated alone.

[2] = test system: ovarian carcinoma (pdOVCA1); assay: in vivo biological activity, pdOVCA1 inoculated i.p. in SCID mice; conditions: treatment at 7th, 14th, 21st day, 1,000 U/ml
Experimental: The experiments were carried out using the cell line of ovarian carcinoma (pdOVCA1) (sensitive to the antiproliferative action of IFN) inoculated i.p. in mice belonging to the group SCID F, 3×10^6 cells/mouse. The experiment was effected using 3 distinct groups of animals, 6 mice per group:
1st group: treatment at the 7th, 14th and 21st day with recombinant human Interferone alpha 2a (IFN) at a concentration of 1,000 U/ml, as positive control;
2nd group: treatment at the 7th,14th and 21st day with the bioconjugate object of the present invention (HA-IFN) prepared as described in Example 3, at a concentration of 1,000 U/ml as equivalent IFN unit;
3rd group; represents the non-pharmacologically treated control but only inoculated with pdOVCA1s.

[3] = mouse, in vivo

| Substance | cytotoxic action (cell vitality vs cells incubated alone) [1] | efficacy in vivo vs reference drug IFN [2] | statistic significance vs the non-treated control [2] | biodistribution in a longer time scale [3] | biodistribution, main fluorescence signal [3] | biodistribution, secondary fluorescence signal [3] |
| --- | --- | --- | --- | --- | --- | --- |
| HA-IFN: hyaluronic acid (200 kDa) aldehyde derivative conjugated to recombinant human interferon alpha 2a, prevalently at the N-terminal end | almost quantitatively maintained | greater efficacy in vivo | considerable significance |  |  |  |
| labeled conjugate according to Example 6: HA-interferon alpha 2a conjugate whose protein is marked with Cy5 fluorescent probe |  |  |  | vesical accumulation | hepatic accumulation | less intense fluorescence in the adjacent pulmonary area |
| recombinant human Interferon alpha 2a: recombinant human IFN alpha 2a, protein of about 20 kDa; reference drug [reference compound] | marked cytotoxic action |  | no statistic significance |  |  |  |
